Values of other authors, collected in paper PMC7376644 (Pharmacology Research & Perspectives, 2020).

Settings: PZQ metabolism inhibited by KTZ; cited from earlier work

Substance: X‐hydroxy praziquantel [X‐OH PZQ]
- Reduction of exposure with KTZ: 57%
